According to US20090092603A1, “EARLY DIAGNOSIS AND TREATMENT OF DRUG RESISTANCE IN MUC1-POSITIVE CANCER” (priority 2007, published 2009):

Assays:
[1] = tested on: BTRes1 and BTRes2 (BT474 cell pools that have acquired resistance to HERCEPTIN®); experiment: Growth of HERCEPTIN resistant cell pools versus HERCEPTIN concentration, alone or with MUC1* disabling agents; type: cell-based
Experimental: Briefly, BT474 cells, and resistant cells (BTRes1 and BTRes2) were plated in 96 well plates at 10,000 cells/well, six wells per condition. […] Three days later, the remaining cells were counted using a hemocytometer.
BT474, BTRes1 and BTRes2 Cells were plated in 96 well plates at 10,000 cells/well, six wells/condition. […] One set of wells was left untreated. Three days later, cells were counted, and Percent Normalized Growth was calculated.
BT474 cells were transfected in triplicate with control siRNA (Santa Cruz Biotechnologies; sc-37007), and BTRes1 cells were transfected in triplicate with control or MUC1-specific siRNA (Santa Cruz Biotechnologies sc-35985). One microliter of 10 μM siRNA was added to 100 ul of OptiMEM medium (Invitrogen 22600134). Six microliters of HiPerfect reagent (Qiagen 301704) were then added to each tube. After vortexing, tubes were incubated at room temperature for 20 minutes. Meanwhile, cells were trypsinized, pelleted and resuspended in fresh RPMI without HERCEPTIN®. 5×10^5 cells in 2.3 ml RPMI were combined with the OptiMEM with siRNA/HiPerfect complexes and added to a well of a 6 well plate. Two days later, cells were re-transfected by the same method, and plated in 96 well plates, at 10,000 cells per well, five wells per condition. […] Three days later, cells were counted, and Percent Normalized Growth was calculated.

[2] = tested on: breast cancer patients who overexpress the HER2 growth factor receptor; conditions: cited from earlier work
[3] = tested on: breast cancer cell line ZR-75-30; experiment: ZR-75-30 growth with anti-MUC1* Fab and HERCEPTIN (FIG. 10B); type: cell-based; conditions: ZR-75-30, combination of anti-MUC1* Fab and HERCEPTIN®
[4] = tested on: cancer cell lines that expressed high levels of MUC1*; experiment: HERCEPTIN effect on cell lines with intrinsically high MUC1*; type: cell-based; conditions: HERCEPTIN® alone
Excerpt: We also investigated whether cancer cells that intrinsically expressed high levels of MUC1* were resistant to certain drugs. […] MUC1* may also be disabled by binding agents to its intracellular tail such that interactions with signaling proteins are clocked.

In the case of trastuzumab [HERCEPTIN®], the “effect of HERCEPTIN® on cell growth” value ([1]; BTRes1 and BTRes2, HERCEPTIN® alone, 0-3 ug/ml) is listed as “no effect”, the “50% growth inhibition concentration of HERCEPTIN®” value ([1]; BTRes1 cells transfected with MUC1-specific siRNA) is listed as “less than 0.01 ug/ml” and the patients acquiring resistance ([2]; HER2 metastatic breast cancer patients, within the first year of treatment) is listed as 25%. For the same substance, the “patients responsive to treatment” value ([2]; of 42,000 HER2 overexpressing breast cancer patients) was “less than 35%”, the cell growth [3] was “inhibited” and the “therapeutic effect of HERCEPTIN®” value [4] was “no therapeutic effect”.
